From PubChem
Compounds with a hit are over-represented: about 0.73% of the library has one in this group of screens.
Yeast UUG start: yeast start codon fidelity modulation; AID 602363; activity score, % at 18.7 µM; S. cerevisiae UUG-firefly luciferase reporter, luminescence/redox ratio; 0.13% of 350,000 active;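 active means replicate mean at a twofold rise or more, about +100% in these data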;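 further: firefly luciferase made from a UUG start codon reports start codon fidelity; reporter light over untreated wells divided by growth signal over untreated wells; some hits fall short of that in this replicate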
XiGFP reactiv: activators of inactive X chromosome reactivation, primary screen, imaging, XiGFP fibroblasts, GFP high-content imaging, set 2 | XiGFP mouse fibroblasts, % GFP-positive cells imaging, 3 d; cells co-treated with 5-aza-dC sensitizer; scaled so ellipticine positive control = 100% | activation, % at 7.58 µM | 360,000 compounds, 0.055% hits | AID 743238, 2013;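 active means mean normalized replicate activation at least 10% and every replicate at or above 10%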;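 further: 0% = median of on-plate neutral control wells and 100% = ellipticine 6 µM median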
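System: 68-5-11 XiGFP fibroblast line; Timing: 3 days compound exposure; Compound dosing: one concentration, pinned; Benchmarks: positive control ellipticine, 6 µM final; Buffer or medium: DMEM containing 5-aza-dC.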
RAD52 anneal inh: RAD52 DNA annealing inhibitors, primary screen, biochemical, FRET, single point, set 2. DNA repair protein RAD52 homolog (Homo sapiens), P43351. recombinant RAD52 DNA annealing, FRET fluorescence. inhibition, % at 18.7 µM. 360,000 compounds, 0.46% hits. AID 651710, 2012;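 active means every replicate showing at least 50% inhibition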
E-sel inducer: E-selectin induction in HUVECs, primary screen, imaging, HUVEC, immunofluorescence imaging, single point; P16581; normalized: neutral wells 0, TNF-alpha wells 100; activation, % at 7.58 µM; 260,000 compounds, 0.37% hits; AID 686992, 2013;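 active means mean E-selectin-positive cell signal at least 10% of the positive control, reached in at least 60% of replicates, without over 20% cell loss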
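Test system: HUVEC | Signal: Immunofluorescence imaging | Read-out: Percent E-selectin-positive cells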
RAD54 inh: inhibitors of human RAD54 branch migration, primary screen, biochemical, fluorescence, single point. inhibition, % at 10.4 µM. 360,000 compounds, 0.14% hits. AID 602329, 2012. RAD54 Holliday junction branch migration, FAM/BHQ fluorescence. DNA repair and recombination protein RAD54-like (Homo sapiens), Q92698;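 active means mean normalized replicate activity at least 40 and at least half of replicates scoring 40 or more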;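 further: 0% = median of neutral control wells and 100% = median of positive control wells; inhibitors cause a drop in the FAM fluorescence signal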
The depositor's hits bear a star; nt = no result given; ! = a repeat was not active.

Sequences of proteins named here, by UniProt entry; tags and fusion partners are left off.
DNA repair protein RAD52 homolog (Homo sapiens), P43351, UniProt P43351, whole entry, looked up: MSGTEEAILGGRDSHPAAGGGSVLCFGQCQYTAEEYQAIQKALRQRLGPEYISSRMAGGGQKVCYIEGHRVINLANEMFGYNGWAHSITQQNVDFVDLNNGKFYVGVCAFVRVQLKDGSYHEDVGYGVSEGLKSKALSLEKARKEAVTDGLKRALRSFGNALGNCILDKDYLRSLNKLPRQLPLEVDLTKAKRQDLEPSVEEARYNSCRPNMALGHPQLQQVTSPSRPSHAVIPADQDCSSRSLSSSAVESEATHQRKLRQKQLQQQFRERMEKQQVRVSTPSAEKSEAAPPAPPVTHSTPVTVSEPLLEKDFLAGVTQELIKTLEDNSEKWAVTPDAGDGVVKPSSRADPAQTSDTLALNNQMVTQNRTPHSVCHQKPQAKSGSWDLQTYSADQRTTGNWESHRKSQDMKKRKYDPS
DNA repair and recombination protein RAD54-like (Homo sapiens), Q92698, UniProt Q92698, whole entry, looked up: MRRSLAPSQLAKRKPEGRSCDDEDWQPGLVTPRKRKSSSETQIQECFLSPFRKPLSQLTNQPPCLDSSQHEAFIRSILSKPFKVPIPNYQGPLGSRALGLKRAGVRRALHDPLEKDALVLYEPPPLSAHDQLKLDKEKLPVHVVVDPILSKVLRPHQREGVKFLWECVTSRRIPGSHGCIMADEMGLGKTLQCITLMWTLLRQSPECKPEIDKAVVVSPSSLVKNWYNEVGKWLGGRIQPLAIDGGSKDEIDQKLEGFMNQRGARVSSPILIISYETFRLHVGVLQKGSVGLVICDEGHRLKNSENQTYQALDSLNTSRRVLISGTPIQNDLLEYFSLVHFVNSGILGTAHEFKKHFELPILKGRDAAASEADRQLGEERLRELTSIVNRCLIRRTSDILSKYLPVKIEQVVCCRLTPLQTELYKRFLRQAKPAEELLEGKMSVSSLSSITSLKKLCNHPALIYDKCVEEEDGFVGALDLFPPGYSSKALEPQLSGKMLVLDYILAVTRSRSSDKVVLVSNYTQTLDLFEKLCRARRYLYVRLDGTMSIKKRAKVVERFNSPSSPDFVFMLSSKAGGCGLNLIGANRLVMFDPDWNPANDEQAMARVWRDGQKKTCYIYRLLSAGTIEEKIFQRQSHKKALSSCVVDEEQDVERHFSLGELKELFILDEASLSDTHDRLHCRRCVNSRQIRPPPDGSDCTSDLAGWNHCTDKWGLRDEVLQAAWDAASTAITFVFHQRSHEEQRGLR

item	Molecule	Yeast UUG start	XiGFP reactiv	RAD52 anneal inh
1	C[C@@H]1CN([C@H](C)CO)C(=O)c2cc(NC(=O)Nc3ccccc3)ccc2O[C@H]1CN(C)C(=O)Nc1ccc(C(F)(F)F)cc1	9.5	0.1	-18.9
2	COc1ccccc1CNC(=O)C[C@@H]1C=C[C@@H](NC(C)=O)[C@@H](CO)O1	-14.0	-0.1	2.6
3	C[C@@H]1CN([C@@H](C)CO)C(=O)c2cc(NC(=O)Nc3ccc(C(F)(F)F)cc3)ccc2O[C@H]1CN(C)S(C)(=O)=O	19.9	-0.4	2.9
4	COc1cccc(S(=O)(=O)Nc2ccc3c(c2)[C@H]2C[C@H](CC(=O)NCc4cccc(F)c4)O[C@@H](CO)[C@H]2O3)c1	25.8	0.3	-17.1
5	C[C@H]1CN([C@@H](C)CO)C(=O)c2cccc(NS(=O)(=O)c3ccc(F)cc3)c2O[C@H]1CN(C)S(=O)(=O)c1cccs1	18.8	-0.7	-11.2
6	C[C@@H]1CN([C@H](C)CO)C(=O)c2cccc(NS(=O)(=O)c3ccc(F)cc3)c2O[C@H]1CN(C)S(=O)(=O)c1cccs1	20.4	-1.2	10.2
7	Fc1cccc(-c2ccc(C3[C@H]4CNC[C@@H]3N4Cc3ccccc3F)cc2)c1 (stereo partly specified)	nt	0.0	59.7*
8	COc1cccc(-c2ccc(C3[C@H]4CNC[C@@H]3N4Cc3cc(F)ccc3F)cc2)c1 (stereo partly specified)	nt	0.1	54.2*!
9	COc1ccc(N(C)S(=O)(=O)c2ccc(C)cc2)c([N+](=O)[O-])c1	nt	0.1	-6.4
10	Cc1ccc(S(=O)(=O)N(C)c2ccc(C)c([N+](=O)[O-])c2)cc1	nt	20.9*	-5.3

item	E-sel inducer	RAD54 inh
1	2.1	-4.9
2	-0.4	2.8
3	nt	-3.7
4	-0.4	-14.3
5	235.0*	-0.3
6	-3.0	-3.6
7	-0.1	nt
8	-0.1	nt
9	nt	nt
10	1.4	nt

The results go on.
item	Molecule	Yeast UUG start	XiGFP reactiv	RAD52 anneal inh
11	CCN(CC)c1ccc2nc3c4ccccc4c(=O)cc-3oc2c1	nt	0.3	-30.0
12	C[C@@H]1CCCCO[C@@H](CN(C)S(=O)(=O)c2cccs2)[C@@H](C)CN([C@H](C)CO)C(=O)c2cc(NC(=O)C3CCCCC3)ccc2O1	-11.0	-1.1	-35.9
13	CCCNC(=O)N1CC2(C1)[C@@H](c1ccccc1)[C@@H](CO)N2Cc1ccc(F)cc1	nt	0.0	-10.8
14	CC(O)C(=O)N/N=C/c1ccccc1C(=O)O (stereo unspecified)	-5.7	0.0	-10.2
15	O=C(C[C@H]1C[C@@H]2c3cc(NC(=O)c4cccnc4)ccc3O[C@@H]2[C@@H](CO)O1)NCc1ccc(Oc2ccccc2)cc1	-4.0	0.0	-34.0
16	O=[N+]([O-])c1ccc2c(c1)CO[C@@]21O[C@H](CCO)C[C@H](O)[C@H]1O	13.4	0.0	-20.6
17	CCN1[C@@H]2c3ccc(/C=C/c4ccccc4)c(=O)n3C[C@H]1[C@H](CO)[C@H]2C(=O)NC1Cc2ccccc2C1	nt	0.0	7.2
18	O=C(C1CCC1)N1CC[C@@H]2[C@H](CO)Nc3ccc(C#Cc4ccc(F)cc4)cc3[C@@H]21	nt	0.3	-1.7
19	CCC(=O)N1CC[C@@H]2[C@H](CO)Nc3ccc(C#Cc4ccc(F)cc4)cc3[C@@H]21	-6.1	0.3	-89.6
20	O=C(C[C@@H]1CC[C@H]2[C@@H](COC[C@H](O)CN2C(=O)c2ccccc2F)O1)NCc1ccc(Cl)c(Cl)c1	12.8	0.3	-41.1

item	E-sel inducer	RAD54 inh
11	203.0*	nt
12	-0.1	4.8
13	-0.4	nt
14	375.0*	1.6
15	0.3	-0.1
16	64.9*	2.5
17	0.1	nt
18	34.4*	nt
19	59.5*	2.7
20	2.0	-3.2

Remaining list, next part:
item	Molecule	Yeast UUG start	XiGFP reactiv	RAD52 anneal inh
21	Cc1ccc(S(=O)(=O)NC2CCN(Cc3cccc(OCCO)c3)CC2)cc1	2.1	nt	51.5*
22	O=S(=O)(N[C@@H]1CCCN(Cc2cccc(OCCO)c2)C1)c1ccc2ccccc2c1	-9.7	nt	18.6
23	C/C=C/c1ccc([C@H]2[C@H]3CN(C(=O)Nc4ccc(OC)cc4)CCCCN3[C@H]2CO)cc1	16.8	0.2	-23.4
24	O=C(C[C@H]1C[C@H]2c3cc(NC(=O)NC4CCCC4)ccc3O[C@H]2[C@H](CO)O1)NCc1cccnc1	nt	0.0	18.0
25	CNc1ccccc1C(C)(C)c1cc(-c2cccc(OC)c2)no1	nt	0.0	-20.5
26	COc1cc(CN2C[C@@H]3N[C@H](C2)C3c2ccc(-c3ccc(C#N)cc3)cc2)cc(OC)c1 (stereo partly specified)	nt	0.0	nt
27	Cc1cccc(-c2ccc(C3[C@@H]4CN(Cc5ccccc5)C[C@H]3N4)cc2)c1 (stereo partly specified)	nt	0.1	50.4*
28	COc1cccc(CN2C[C@@H]3N[C@H](C2)C3c2ccc(-c3ccc(C#N)cc3)cc2)c1 (stereo partly specified)	nt	0.0	71.1*!
29	COc1cccc(CN2C[C@@H]3N[C@H](C2)C3c2ccc(-c3ccccc3OC)cc2)c1 (stereo partly specified)	nt	0.0	50.8*
30	COc1ccccc1-c1ccc(C2[C@@H]3CN(Cc4cccc(F)c4)C[C@H]2N3)cc1 (stereo partly specified)	nt	0.0	nt

item	E-sel inducer	RAD54 inh
21	nt	-20.9
22	nt	-10.8
23	-0.2	3.9
24	0.1	nt
25	46.3*	nt
26	0.0	nt
27	0.0	nt
28	-0.1	nt
29	0.1	nt
30	0.1	nt

Further results.
item	Molecule	Yeast UUG start	XiGFP reactiv	RAD52 anneal inh
31	Cc1cccc(-c2ccc(C3[C@@H]4CN(Cc5cccc(F)c5)C[C@H]3N4)cc2)c1 (stereo partly specified)	nt	0.0	nt
32	CO[C@H]1CN(C)C(=O)c2cc(NS(=O)(=O)CC(F)(F)F)ccc2OC[C@H](C)N(C(=O)NC(C)C)C[C@H]1C	nt	0.1	-13.8
33	CCC(=O)N(C)C[C@@H]1Oc2cc(C#CC3CCCCC3)ccc2S(=O)(=O)N([C@H](C)CO)C[C@@H]1C	8.0	0.1	11.0
34	COc1ccc(C2C(C(=O)c3ccccc3)N3c4ccccc4C=CC3C2[N+](=O)[O-])cc1 (stereo unspecified)	nt	0.0	-125.3
35	COc1ccc2c(c1)N(C)/C(=C/c1cccc[n+]1C)S2	-0.6	0.3	24.4
36	CCN1/C(=C/c2cccc[n+]2C)Sc2ccc(OC)cc21	7.6	0.3	37.8
37	CN1/C(=C/c2cccc[n+]2C)Sc2ccccc21	10.5	0.3	42.0
38	CN1C[C@H]2[C@@H](c3ccccc31)[C@H](CO)N2Cc1ccccc1	-5.2	0.2	nt
39	O=CNc1ccc2c3c(cccc13)-c1ccccc1-2	-13.1	54.6*	-49.7
40	CC(=O)Nc1ccc2c3c(cccc13)C(=O)N(c1ccccc1)C2=O	nt	0.1	-2.5
41	CCCN(C)C[C@@H]1OCCCC[C@H](C)Oc2ccc(NC(=O)Nc3ccc(F)cc3)cc2C(=O)N([C@H](C)CO)C[C@@H]1C	8.0	0.1	53.0*

item	E-sel inducer	RAD54 inh
31	-0.1	nt
32	-0.2	-7.5
33	-0.2	6.5
34	119.6*	nt
35	0.0	51.1*
36	0.1	46.0
37	-0.2	61.8*
38	0.4	5.9
39	0.8	-2.7
40	0.0	nt
41	0.1	3.9

Sorted by formula weight (rising): part of the list above
item	Molecule	Yeast UUG start	XiGFP reactiv	RAD52 anneal inh
37	CN1/C(=C/c2cccc[n+]2C)Sc2ccccc21	10.5	0.3	42.0
24	O=C(C[C@H]1C[C@H]2c3cc(NC(=O)NC4CCCC4)ccc3O[C@H]2[C@H](CO)O1)NCc1cccnc1	nt	0.0	18.0
5	C[C@H]1CN([C@@H](C)CO)C(=O)c2cccc(NS(=O)(=O)c3ccc(F)cc3)c2O[C@H]1CN(C)S(=O)(=O)c1cccs1	18.8	-0.7	-11.2

item	E-sel inducer	RAD54 inh
37	-0.2	61.8*
24	0.1	nt
5	235.0*	-0.3
